From patent publication US20140170199A1, “PARASITICIDAL COMBINATION COMPRISING INDOXACARB AND DELTAMETHRIN” (priority 2011, published 2014)
Where two headings read alike, the source gives them in different places.

Tested on: Ctenocephalides felis fleas
Details: dogs; for Flea efficacies, arithmetic mean / Flea efficacies, geometric mean: vs negative control
[1] = Day +2, count ~48 h after treatment or infestation
[2] = Day +9, count ~48 h after infestation
[3] = Day +30, count ~48 h after infestation
[4] = Day +37, count ~48 h after infestation
[5] = Day +65, count ~48 h after infestation
[6] = Day +93, count ~48 h after infestation
[7] = Day +121, count ~48 h after infestation
[8] = Day +149, count ~48 h after infestation
[9] = Day +163, count ~48 h after infestation
[10] = Day +177, count ~48 h after infestation

COC(=O)N(C(=O)N1CO[C@@]2(C(=O)OC)Cc3cc(Cl)ccc3C2=N1)c1ccc(OC(F)(F)F)cc1 [indoxacarb, (5)-methyl 7-chloro-2,5-dihydro-2-[[(methoxycarbonyl) [4-(trifluoromethoxy)phenyl]amino]carbonyl]indeno[1,2-e][1,3,4]oxadiazine-4a(3H)-carboxylate]
Flea efficacies, arithmetic mean (Day +2 (immediate)): 99.8% | Flea efficacies, geometric mean (Day +2 (immediate)): 99.8% | Flea counts, arithmetic mean [1]: 0.1 | Flea counts, geometric mean [1]: 0.1^2,4 | Flea counts, arithmetic mean [2]: 0.0 | Flea counts, geometric mean [2]: 0.0^2,4 | Flea efficacies, arithmetic mean (Day +9): 100.0% | Flea efficacies, geometric mean (Day +9): 100.0% | Flea counts, arithmetic mean [3]: 0.0 | Flea counts, geometric mean [3]: 0.0^2,4 | Flea efficacies, arithmetic mean (Day +30): 100.0% | Flea efficacies, geometric mean (Day +30): 100.0% | Flea counts, arithmetic mean [4]: 0.0 | Flea counts, geometric mean [4]: 0.0^2,4 | Flea efficacies, arithmetic mean (Day +37): 100.0% | Flea efficacies, geometric mean (Day +37): 100.0% | Flea counts, arithmetic mean [5]: 0.0 | Flea counts, geometric mean [5]: 0.0^2,4 | Flea efficacies, arithmetic mean (Day +65): 100.0% | Flea efficacies, geometric mean (Day +65): 100.0% | Flea counts, arithmetic mean [6]: 0.0 | Flea counts, geometric mean [6]: 0.0^2,4 | Flea efficacies, arithmetic mean (Day +93): 100.0% | Flea efficacies, geometric mean (Day +93): 100.0% | Flea counts, arithmetic mean [7]: 0.0 | Flea counts, geometric mean [7]: 0.0^2,4 | Flea efficacies, arithmetic mean (Day +121): 100.0% | Flea efficacies, geometric mean (Day +121): 100.0% | Flea counts, arithmetic mean [8]: 0.0 | Flea counts, geometric mean [8]: 0.0^2,4 | Flea efficacies, arithmetic mean (Day +149): 100.0% | Flea efficacies, geometric mean (Day +149): 100.0% | Flea counts, arithmetic mean [9]: 0.0 | Flea counts, geometric mean [9]: 0.0^2,4 | Flea efficacies, arithmetic mean (Day +163): 100.0% | Flea efficacies, geometric mean (Day +163): 100.0% | Flea counts, arithmetic mean [10]: 0.0 | Flea counts, geometric mean [10]: 0.0^2,4 | Flea efficacies, arithmetic mean (Day +177): 100.0% | Flea efficacies, geometric mean (Day +177): 100.0%
